Source: patent US20090298797A1, “COMBINATION THERAPY FOR THE TREATMENT OF INFLUENZA” (priority 2008, published 2009)

Test system: lung, brain, spleen, kidney and liver tissues
Assay: Histopathological analysis of tissues of challenged mice (H&E)
Format: in vivo, BALB/c mice

CC(=O)N[C@H]1[C@H]([C@H](O)[C@H](O)CO)OC(C(=O)O)=C[C@@H]1N=C(N)N [zanamivir]
mononuclear cell infiltration in the cerebral cortex (histopathology) (mouse, in vivo): focal mild perivascular mononuclear cell infiltration
reactive lymphoid cells with frequent apoptotic bodies in spleen (histopathology) (mouse, in vivo): found
alveolar inflammation on histological examination (surviving mice, day 21 after viral challenge): inflammatory infiltrate
